# Reference: patent US8530648B2, “Diaza-spiro[5.5]undecanes” (Novartis AG, priority 2009, dated 2013)
# Chains of the proteins cited; added tags and fusions are not shown.
# UniProt O43613, whole entry: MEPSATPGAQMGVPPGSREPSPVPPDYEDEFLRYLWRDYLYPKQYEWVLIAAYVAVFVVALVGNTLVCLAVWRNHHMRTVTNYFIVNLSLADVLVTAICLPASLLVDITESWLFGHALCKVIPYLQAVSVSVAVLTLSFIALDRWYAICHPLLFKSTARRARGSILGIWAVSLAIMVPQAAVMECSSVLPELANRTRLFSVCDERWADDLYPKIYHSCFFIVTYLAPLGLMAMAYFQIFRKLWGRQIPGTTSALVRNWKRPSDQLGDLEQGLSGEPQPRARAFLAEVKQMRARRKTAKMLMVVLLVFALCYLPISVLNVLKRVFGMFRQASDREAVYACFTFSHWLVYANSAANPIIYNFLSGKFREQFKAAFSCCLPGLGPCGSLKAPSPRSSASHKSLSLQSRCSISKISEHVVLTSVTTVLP
# UniProt O43614, whole entry: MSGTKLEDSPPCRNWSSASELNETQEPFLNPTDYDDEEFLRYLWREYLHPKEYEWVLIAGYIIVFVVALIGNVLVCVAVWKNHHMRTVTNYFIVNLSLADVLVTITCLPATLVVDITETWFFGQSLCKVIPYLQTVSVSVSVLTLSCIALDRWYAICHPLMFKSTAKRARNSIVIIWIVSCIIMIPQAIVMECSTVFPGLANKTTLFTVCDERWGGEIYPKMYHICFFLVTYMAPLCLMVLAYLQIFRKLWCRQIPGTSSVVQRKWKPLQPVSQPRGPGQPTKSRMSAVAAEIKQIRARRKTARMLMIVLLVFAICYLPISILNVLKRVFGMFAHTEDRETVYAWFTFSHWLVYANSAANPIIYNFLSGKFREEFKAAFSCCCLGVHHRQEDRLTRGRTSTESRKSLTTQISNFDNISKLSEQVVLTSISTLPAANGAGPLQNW
# Legend:
# hOx1R [1] = biological target: T1, hOx1R (Homo sapiens (Human), UniProt O43613); assay: Calcium accumulation in cells (FLIPR), hOx1R; type: cell-based; details: read-out: FLIPR hOx1R Ki; inhibition of orexin A induced calcium accumulation, Cheng and Prusoff correction
# hOx2R [2] = biological target: T2, hOx2R (Homo sapiens (Human), UniProt O43614); assay: Calcium accumulation in cells (FLIPR), hOx2R; type: cell-based; details: read-out: FLIPR hOx2R Ki; inhibition of orexin A induced calcium accumulation, Cheng and Prusoff correction
# hOx1R [3] = biological target: T1, hOx1R; assay: Radioligand binding assay, [3H]-SB649868, hOx1R; details: read-out: Binding hOx1R Kd; radioligand [3H]-SB649868, competition
# hOx2R [4] = biological target: T2, hOx2R; assay: Radioligand binding assay, [3H]-SB649868, hOx2R; details: read-out: Binding hOx2R Kd; radioligand [3H]-SB649868, competition
SMILES,Ki (hOx1R [1]) [nM],Ki (hOx2R [2]) [nM],Kd (hOx1R [3]) [nM],Kd (hOx2R [4]) [nM]
O=C1N(Cc2c[nH]c3ccccc23)CCCC12CCN(c1nccc3ccccc13)CC2,1240,564,,
O=C1N(Cc2c[nH]c3ccccc23)CCCC12CCN(c1nccc(-n3cccn3)n1)CC2,259,32,143,41
